This note sets out measurements from PubChem BioAssay AID743445 (Broad Institute, 2014).

Chains of the proteins cited; added tags and fusions are not shown.
UniProt O96028, whole entry: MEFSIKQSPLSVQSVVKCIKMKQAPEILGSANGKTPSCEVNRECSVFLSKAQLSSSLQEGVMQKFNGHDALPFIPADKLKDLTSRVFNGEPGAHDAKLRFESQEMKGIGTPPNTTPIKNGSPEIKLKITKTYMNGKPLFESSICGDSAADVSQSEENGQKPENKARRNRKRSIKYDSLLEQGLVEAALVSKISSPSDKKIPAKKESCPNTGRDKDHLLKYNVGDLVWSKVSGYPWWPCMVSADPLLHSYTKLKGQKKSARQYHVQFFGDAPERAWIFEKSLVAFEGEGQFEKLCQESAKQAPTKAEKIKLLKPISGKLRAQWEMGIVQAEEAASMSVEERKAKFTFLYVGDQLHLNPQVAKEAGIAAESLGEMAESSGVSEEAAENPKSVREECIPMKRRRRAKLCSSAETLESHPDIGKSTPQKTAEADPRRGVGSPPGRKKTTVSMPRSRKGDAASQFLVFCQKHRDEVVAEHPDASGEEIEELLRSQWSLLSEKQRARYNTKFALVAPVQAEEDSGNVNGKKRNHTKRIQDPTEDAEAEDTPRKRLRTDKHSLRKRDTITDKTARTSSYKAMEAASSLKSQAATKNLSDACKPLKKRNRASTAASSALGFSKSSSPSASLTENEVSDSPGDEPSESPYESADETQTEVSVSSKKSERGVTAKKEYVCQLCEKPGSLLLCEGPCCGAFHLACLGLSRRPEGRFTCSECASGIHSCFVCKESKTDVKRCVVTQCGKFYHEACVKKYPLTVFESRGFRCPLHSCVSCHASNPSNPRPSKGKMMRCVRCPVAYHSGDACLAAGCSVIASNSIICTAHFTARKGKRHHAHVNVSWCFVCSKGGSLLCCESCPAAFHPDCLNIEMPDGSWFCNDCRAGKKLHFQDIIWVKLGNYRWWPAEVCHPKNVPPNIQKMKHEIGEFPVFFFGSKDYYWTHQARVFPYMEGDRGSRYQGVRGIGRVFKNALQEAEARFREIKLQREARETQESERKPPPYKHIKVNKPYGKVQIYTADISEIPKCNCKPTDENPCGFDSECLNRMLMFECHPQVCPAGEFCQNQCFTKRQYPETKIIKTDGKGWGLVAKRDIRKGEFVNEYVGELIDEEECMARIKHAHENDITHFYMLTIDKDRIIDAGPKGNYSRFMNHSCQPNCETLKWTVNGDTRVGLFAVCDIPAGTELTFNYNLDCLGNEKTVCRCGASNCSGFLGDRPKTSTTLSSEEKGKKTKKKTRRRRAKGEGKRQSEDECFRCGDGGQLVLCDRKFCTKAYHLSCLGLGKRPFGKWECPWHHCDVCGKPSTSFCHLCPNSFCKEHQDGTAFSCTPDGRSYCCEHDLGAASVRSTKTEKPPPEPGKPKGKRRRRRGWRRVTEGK

The list shows a part of the results, in another mix than the full data. Calls of active or inactive are those of the source. No stated cut-off is given here; in the data, active means inhibition above about 50%; inactive means the rest.

The assay addresses Histone-lysine N-methyltransferase NSD2 (Homo sapiens) (UniProt O96028). Put plainly: blockers of NSD2 lysine methylation activity – biochemical, AlphaScreen, single concentration, set 2, primary screen (AID 743445). The note with it: NSD2 peptide methylation, 120 min, at 12.5 µM, active compounds read high. Background: Bead proximity is the source of the signal in Alpha formats.
Usually inhibition stands for the change of the read-out against control, counted positive when it falls. For the molecule `COc1cc(C(=O)NCC2(N(C)C)CCCCC2)ccc1OC(F)F`, the inhibition is inactive: 0.105%. Next, `CCOC(=O)N1CCC(Nc2cccc(C)c2)CC1`: inactive: 1.01%. For `CCOc1ccc(C)cc1CN(CCCl)CCCl` the value was inactive: 6.71%; for `CCOC(=O)N1CCC(Nc2ccc(F)cc2)CC1`, inactive: 0.155%. For `COc1ccc(NC2CCN(CCc3ccccc3)CC2)c(OC)c1` the value was inactive: 31.3%.

Regarding `O=C(NCC1(N2CCCCC2)CCCCC1)c1ccc(F)cc1`, the inhibition is inactive: -1.26%. For `CCCCOc1ccc(C(=O)NCC2(N3CCOCC3)CCCCC2)cc1` the value was inactive: -0.451%; for `O=P1(N(CCCl)CCCl)SCCCS1`, inactive: 7.06%.

As to `O=C(NCC1(N2CCOCC2)CCCCC1)c1cc2ccccc2o1`, the inhibition is inactive: 2.03%.

For the molecule `Cc1cc(C)cc(N(C(=O)c2ccccc2)C2CCN(C(=O)OC(C)(C)C)CC2)c1`, the inhibition is inactive: -2.36%. For `O=C(NCC1(N2CCCCC2)CCCCC1)c1ccc(Cl)nc1` the value was inactive: 0.445%; for `CCOC(=O)N1CCC(Nc2ccc(OC)cc2)CC1`, inactive: 5.49%; for `COc1ccc(Cl)cc1C(=O)NCC1(N2CCOCC2)CCCCC1`, inactive: -2.25%. For `O=C(OC1CN2CCC1CC2)C1c2ccccc2Oc2ccccc21` (centres undefined) the value was inactive: -0.038%; for `O=C(NCC1(N2CCCCC2)CCCCC1)c1ccc(Cl)s1`, inactive: 0.773%; for `N#CC1(Nc2ccccc2)CCN(Cc2ccccc2)CC1`, inactive: -0.533%. Turning to `O=C(NCC1(N2CCCCC2)CCCCC1)c1cccs1`, the inhibition was inactive: 1.17%. Next, `O=C(NCC1(N2CCCCC2)CCCCC1)c1ccc(=O)[nH]c1`: inactive: -0.98%; `COc1ccc(C(=O)NCC2(N3CCCCC3)CCCCC2)c(OC)c1OC`: inactive: -1.8%; `CC(C)(C)OC(=O)N1CCC(N(C(=O)c2ccccc2)c2ccc(F)cc2)CC1`: inactive: -3.89%. Next, `COc1ccc(C(=O)NCC2(N3CCCCC3)CCCCC2)cc1`: inactive: 20.9%; `Cc1cccc(NC2(C#N)CCN(Cc3ccccc3)CC2)c1`: inactive: -2.85%.

For the molecule `CSc1ccccc1C(=O)NCC1(N2CCCCC2)CCCCC1`, the inhibition was inactive: 4.29%. As for `O=C(NCC1(N2CCCCC2)CCCCC1)c1cncc(Br)c1`, the inhibition is inactive: 0.072%. On to `CN1CCC(Nc2cccc(F)c2)CC1`, for which the inhibition is inactive: 12.6%. For `CCCOc1ccc(C(=O)NCC2(N(C)C)CCCCC2)cc1OC` the value was inactive: -0.342%; for `Cc1ccc(C(=O)NCC2(N(C)C)CCCCC2)o1`, inactive: -0.239%; for `CN(C)c1cccc(C(=O)NCC2(N3CCCCC3)CCCCC2)c1`, inactive: 0.423%. For `COc1ccc(CN(CCCl)CCCl)cc1Cl` the value was inactive: 26.1%. For `CC(C)c1ccc(NC2CCN(C(=O)OC(C)(C)C)CC2)cc1` the value was inactive: 6.39%.

With `O=C(NCC1(N2CCOCC2)CCCCC1)c1cc(F)c(F)cc1Cl`, the inhibition was inactive: -2.23%. For `COc1cc(OC)c(C(=O)NCC2(N(C)C)CCCCC2)cc1OC` the value was inactive: 4.77%. Consider `O=C(NCC1(N2CCCCC2)CCCCC1)c1cccc(C(F)(F)F)c1`, for which the inhibition is inactive: 2.09%. Take `COc1ccc(NC2CCN(C(=O)OC(C)(C)C)CC2)cc1`: the inhibition was inactive: 9.53%. Next, `CC(C)c1ccc(C(=O)NCC2(N3CCOCC3)CCCCC2)cc1`: inactive: -1.38%. Next, `CN1CCN(CCOC(=O)C(O)(c2ccccc2)c2ccccc2)CC1`: inactive: 2.67%; `O=C(NCC1(N2CCOCC2)CCCCC1)c1cc(=O)[nH]c2ccccc12`: inactive: 1.53%; `COc1cc(C(=O)NCC2(N3CCCCC3)CCCCC2)ccc1OC(F)F`: inactive: 0.86%. For `O=C(NCC1(N2CCCCC2)CCCCC1)c1cccc([N+](=O)[O-])c1`, the inhibition is inactive: -1.62%. For `CSc1ccc(C(=O)NCC2(N3CCOCC3)CCCCC2)cc1` the value was inactive: -0.654%.

On to `N#CC1(Nc2ccccc2)CCN(CCc2ccccc2)CC1`, for which the inhibition was inactive: 0.401%.

Turning to `CCN1CCC(Nc2ccc(Cl)cc2)CC1`, the inhibition is inactive: 3.44%.

For `CCCN1CCC(Nc2cc(OC)cc(OC)c2)CC1`, the inhibition is inactive: 12.4%. For `Cc1cc(N(CCCl)CCCl)ccc1C=O` the value was inactive: -2.75%; for `c1ccc(CN2CCC(Nc3ccccc3)CC2)cc1`, inactive: -6.75%. Take `C/C(N)=N\P(=O)(Oc1ccccc1)Oc1ccccc1`: the inhibition is inactive: -0.002%. Next, `CN(C)C1(CNC(=O)c2cccc(C#N)c2)CCCCC1`: inactive: 0.575%; `CC(C)(C)OC(=O)N1CCC(N(C(=O)c2ccccc2)c2ccc(Cl)cc2)CC1`: inactive: -2.09%; `N#Cc1ccc(C(=O)NCC2(N3CCCCC3)CCCCC2)cc1`: inactive: -3.81%. For `N/C(=N\O)c1c(N)no[n+]1[O-]` the value was inactive: 0.956%. Consider `CCOC(=O)N1CCC(Nc2ccc(C)cc2)CC1`, for which the inhibition was inactive: 3.21%. Take `O=C(OC1CN2CCC1CC2)C1c2ccccc2C=Cc2ccccc21` (centres undefined): the inhibition is inactive: 3.05%. With `O=C(NCC1(N2CCOCC2)CCCCC1)c1cc(Br)ccc1Cl`, the inhibition was inactive: -4.74%. Next, `COc1cc(C(=O)NCC2(N3CCOCC3)CCCCC2)cc(OC)c1C`: inactive: 3.26%. For `COc1ccc(C(=O)NCC2(N3CCOCC3)CCCCC2)cc1OC` the value was inactive: -1.85%; for `NC(=O)C1(Nc2ccccc2)CCN(Cc2ccccc2)CC1`, inactive: 0.133%; for `CCC(CO)(C(=O)OC1CN2CCC1CC2)c1ccccc1` (centres undefined), inactive: 0.13%.

`COc1cccc(C(=O)N(c2cc(C)cc(C)c2)C2CCN(C(=O)OC(C)(C)C)CC2)c1`: the inhibition was inactive: -1.71%.

As for `COc1cc(OC)cc(C(=O)NCC2(N3CCOCC3)CCCCC2)c1`, the inhibition was inactive: -3.79%.

With `CN1CCC(Nc2ccc(Cl)cc2)CC1`, the inhibition was inactive: 3.23%. Next, `CN1CCC(Nc2ccc(F)c(Cl)c2)CC1`: inactive: 4.19%; `CCOc1ncccc1C(=O)NCC1(N2CCOCC2)CCCCC1`: inactive: 0.401%. For `CCCOc1ccc(C(=O)NCC2(N(C)C)CCCCC2)cc1` the value was inactive: 10.2%. Next, `O=C(O)C1(Nc2ccccc2)CCN(Cc2ccccc2)CC1`: inactive: 1.12%; `CC(C)(C)OC(=O)N1CCC(Nc2ccccc2)CC1`: inactive: 24.4%. `CCN1CCC(Nc2cccc(F)c2)CC1`: the inhibition was inactive: 2.22%.

As for `Cc1ccccc1NC1(C#N)CCN(Cc2ccccc2)CC1`, the inhibition was inactive: -10.7%. Next, `Cn1c(=O)[nH]cc(N(CCCl)CCCl)c1=O`: inactive: 1.37%; `O=C(NCC1(N2CCCCC2)CCCCC1)c1ccco1`: inactive: -0.176%. Next, `COc1cc(OC)cc(C(=O)NCC2(N3CCCCC3)CCCCC2)c1`: inactive: -0.78%; `CC(=O)N(c1ccccc1)C1CCNCC1`: inactive: -1.3%; `Cc1ccc(NC2(C#N)CCN(Cc3ccccc3)CC2)cc1`: inactive: -1.41%. Next, `Fc1ccccc1NC1CCN(Cc2ccccc2)CC1`: inactive: 0.226%; `Cc1ccc(C(=O)NCC2(N3CCCCC3)CCCCC2)o1`: inactive: 5.49%.
